Source: patent publication US7008911B2, “Non-surfactant solubilizing agent” (Ecolab, Inc., priority 2002, dated 2006)

What was measured:
[1] = Alcohol amine added to aqueous EPh solution until single phase observed; format: physicochemical; conditions: for amount added until a single phase solution was observed: 100 grams total, room temperature
[2] = Alcohol amine added to aqueous PPh solution until single phase observed; format: physicochemical; conditions: aqueous PPh (34-37 wt % PPh, 39-42 wt % water), room temperature, Formulations B-E

Compound: OCCN(CCO)CCO
- amount added until a single phase solution was observed ([1]; 1 % Eph in H2O): 4 Grams
- amount added until a single phase solution was observed ([1]; 2.5 % Eph in H2O): 14 Grams
- amount added until a single phase solution was observed ([1]; 5 % Eph in H2O): 28.9 Grams
- amount added until a single phase solution was observed ([1]; 10 % Eph in H2O): 42 Grams
- amount added until a single phase solution was observed ([1]; 15 % Eph in H2O): 47.8 Grams
- amount added until a single phase solution was observed ([1]; 20 % Eph in H2O): 47.9 Grams
- amount added until a single phase solution was observed ([1]; 30 % Eph in H2O): 45.1 Grams
- amount added until a single phase solution was observed ([1]; 50 % Eph in H2O): 37.1 Grams
- amount added until a single phase solution was observed ([1]; 75 % Eph in H2O): 28.5 Grams
- alcohol amine at single phase, normalized to 100 weight % of water, alcohol amine and EPh ([1]; listed as of Table 4 with 1 % Eph in H2O, Eph 1 wt % normalized): 4 wt %
- alcohol amine at single phase, normalized to 100 weight % of water, alcohol amine and EPh ([1]; listed as of Table 4 with 2.5 % Eph in H2O, Eph 2 wt % normalized): 12 wt %
- alcohol amine at single phase, normalized to 100 weight % of water, alcohol amine and EPh ([1]; listed as of Table 4 with 5 % Eph in H2O, Eph 4 wt % normalized): 22 wt %
- alcohol amine at single phase, normalized to 100 weight % of water, alcohol amine and EPh ([1]; listed as of Table 4 with 10 % Eph in H2O, Eph 7-8 wt % normalized): 30 wt %
- alcohol amine at single phase, normalized to 100 weight % of water, alcohol amine and EPh ([1]; listed as of Table 4 with 15 % Eph in H2O, Eph 10-12 wt % normalized): 32 wt %
- alcohol amine at single phase, normalized to 100 weight % of water, alcohol amine and EPh ([1]; listed as of Table 4 with 20 % Eph in H2O, Eph 14-15 wt % normalized): 32 wt %
- alcohol amine at single phase, normalized to 100 weight % of water, alcohol amine and EPh ([1]; listed as of Table 4 with 30 % Eph in H2O, Eph 21-23 wt % normalized): 31 wt %
- alcohol amine at single phase, normalized to 100 weight % of water, alcohol amine and EPh ([1]; listed as of Table 4 with 50 % Eph in H2O, Eph 36-40 wt % normalized): 28 wt %
- alcohol amine at single phase, normalized on total weight % [2]: 27 wt %
